Values quoted from earlier work in article PMC7935786 (Cancer Science, 2021).

System: EZH2‐wt lymphoma xenograft
Conditions: EZH2‐wt lymphoma xenograft models, SCID mice; cited from earlier work

## CCN(c1cc(-c2ccc(CN3CCOCC3)cc2)cc(C(=O)NCc2c(C)cc(C)[nH]c2=O)c1C)C1CCOCC1 [Tazemetostat]
  antitumor effects: induce antitumor effects
